Results on 1 molecule are retold here after patent US9765058B2, “Substituted benzylpyrazoles” (BAYER PHARMA AKTIENGESELLSCHAFT, priority 2013, dated 2017).

Sequences of proteins named here, by UniProt entry; tags and fusion partners are left off. Residues count along the entry.
UniProt O43683, 704-1085: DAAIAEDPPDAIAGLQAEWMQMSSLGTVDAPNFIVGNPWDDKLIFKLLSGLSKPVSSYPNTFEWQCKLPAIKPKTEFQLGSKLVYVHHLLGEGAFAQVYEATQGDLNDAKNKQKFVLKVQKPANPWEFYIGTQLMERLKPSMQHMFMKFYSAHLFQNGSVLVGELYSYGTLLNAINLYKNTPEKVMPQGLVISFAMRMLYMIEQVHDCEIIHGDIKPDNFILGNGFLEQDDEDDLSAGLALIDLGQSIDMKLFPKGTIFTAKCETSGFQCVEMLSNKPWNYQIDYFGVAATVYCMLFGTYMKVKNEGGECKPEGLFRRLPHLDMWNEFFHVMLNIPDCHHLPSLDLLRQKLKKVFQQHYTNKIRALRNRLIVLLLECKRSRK

The test addresses catalytic domain of human Bub1 (amino acids 704-1085) (Homo sapiens (Human), UniProt O43683). In words: Bub1 kinase assay (TR-FRET). The class given is biochemical. The conditions noted are these: 10 μM ATP, 1 μM peptide substrate, read-out: Biological Assay 1: Bub1 kinase assay median IC50. The protocol: The stopped reaction mixture was further incubated 1 h at 22° C. in order to allow the formation of complexes between peptides and detection reagents. Subsequently, the amount of product was evaluated by measurement of the resonance energy transfer from the Eu-chelate-antibody complex recognizing the Phosphoserine residue to the streptavidin-XL665 bound to the biotin moiety of the peptide. […] IC50 values were calculated by fitting the normalized inhibition data to a 4-parameter logistic equation (Minimum, Maximum, IC50, Hill; Y=Max+(Min−Max)/(1+(X/IC50)Hill)).
Background: In TR-FRET formats the signal depends on donor and acceptor labels being close together.

As usually defined, the IC50 is the concentration that inhibits the measured activity by half. As for `CCOc1cc(F)c(Cn2cc(Cl)c(-c3ncc(OC)c(Nc4ccncc4C(=O)O)n3)n2)c(F)c1` [Example 2-3-2, 4-({2-[4-chloro-1-(4-ethoxy-2,6-difluorobenzyl)-1H-pyrazol-3-yl]-5-methoxypyrimidin-4-yl}amino)nicotinic acid], the IC50 was found to be 18 nM.
